The values that follow are results of earlier work, collected in patent US10981866B2, “Chemical conjugates of Evans Blue derivatives and their use as radiotherapy and imaging agents” (THE UNITED STATES OF AMERICA, AS REPRESENTED BY THE …, priority 2017, dated 2021).

By UniProt entry, the sequences of proteins in these tests, tags left out. Residues count along the entry.
UniProt P02768, 25-609: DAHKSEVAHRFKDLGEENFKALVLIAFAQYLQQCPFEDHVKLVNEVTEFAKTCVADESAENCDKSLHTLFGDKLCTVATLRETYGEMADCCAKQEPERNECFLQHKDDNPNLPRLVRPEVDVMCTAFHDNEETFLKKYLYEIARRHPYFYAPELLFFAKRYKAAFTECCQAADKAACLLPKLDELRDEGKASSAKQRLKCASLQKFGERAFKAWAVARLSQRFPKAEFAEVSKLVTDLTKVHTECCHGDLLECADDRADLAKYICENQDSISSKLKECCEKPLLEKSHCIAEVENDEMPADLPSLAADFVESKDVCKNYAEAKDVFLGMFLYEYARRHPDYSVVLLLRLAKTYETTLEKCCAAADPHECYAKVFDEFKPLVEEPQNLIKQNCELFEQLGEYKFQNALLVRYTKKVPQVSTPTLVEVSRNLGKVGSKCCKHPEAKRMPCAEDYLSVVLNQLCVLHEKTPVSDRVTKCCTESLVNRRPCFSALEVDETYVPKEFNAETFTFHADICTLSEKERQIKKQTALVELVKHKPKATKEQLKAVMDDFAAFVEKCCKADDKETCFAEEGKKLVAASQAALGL

For orientation: half-life means how long it takes for the measured level to halve.

Data set [1] has as its target albumin (Homo sapiens, UniProt P02768). Particulars: read-out: published binding affinity to albumin; published value; cited from earlier work.
The conditions of data set [2]: cited from earlier work.

With Evans Blue, the Kd in data set [1] is about 2500 nM.
For the substance liraglutide [reference compound], the plasma half-life in data set [2] (after subcutaneous administration) is 11 to 15 h.
Take GLP-1-(7-37): the half-life in data set [2] (degradation by ubiquitous enzymes) was 1.5 to 2 min.
